# T1: Human CFHL1-Y402H-His (ATX-P-421) (human)
# T1 construct: also called human CFHL-1 (Y402H) protein
# T1 chain: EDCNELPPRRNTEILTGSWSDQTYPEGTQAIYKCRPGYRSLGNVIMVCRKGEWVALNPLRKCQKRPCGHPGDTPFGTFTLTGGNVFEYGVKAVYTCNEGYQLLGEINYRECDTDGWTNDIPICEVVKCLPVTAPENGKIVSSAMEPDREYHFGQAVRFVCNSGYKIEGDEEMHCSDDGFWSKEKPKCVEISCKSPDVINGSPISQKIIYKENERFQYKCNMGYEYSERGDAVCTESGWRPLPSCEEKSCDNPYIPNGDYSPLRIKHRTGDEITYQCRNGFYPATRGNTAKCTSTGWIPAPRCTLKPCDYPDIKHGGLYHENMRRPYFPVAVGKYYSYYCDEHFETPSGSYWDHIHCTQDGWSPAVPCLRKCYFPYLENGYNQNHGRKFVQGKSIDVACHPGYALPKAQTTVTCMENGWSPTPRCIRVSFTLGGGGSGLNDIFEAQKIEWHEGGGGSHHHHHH
# B1: ATX-P-604 (antibody, human IgG1, kappa, N297A, V domains shown)
# VH: QVQLQQSGPGLVKPTQTLSLTCAISGDSVSSNSAAWNWIRQSPSRGLEWLGRTYYRSKWFNGYAVSVKSRITINPDASKNQFSLHLKSVTDEDTAVYYCATDRGELLHWYFDLWGRGTLVTVSS
# VL: EIVLTQSPDTLSLSPGERATLSCRASQTIRSSYLAWYQLKPGQAPRLLIYGASSRATGIPDRFSGSGSGTDFTLSISRLEPEDFAVYYCQQYGRSIIFGGGTKVEIKR
# Molecular target: T1, Human CFHL1-Y402H-His (ATX-P-421)
# Assay: Carterra LSA biosensor, mAb printed on chip, human CFHL1-Y402H-His at 380 nM
# Procedure: Experiments were also conducted to determine the reactivity of the CFHR4 antibodies with the human CFHL-1 (Y402H) protein (FIG. 10). The binding experiments were performed on Carterra LSA with a running buffer of PBS pH 7.40, 1% BSA, 0.05% Tween20. Antibodies were covalently printed on an HC30M chip. Chip was activated with 33 mM s-NHS and 133 mM EDC in 100 mM MES pH 5.5 for 7 minutes. Antibodies at 10 mg/ml in acetic acid buffer pH 4.5 were used for printing for 10 min. The printed chip was then quenched with 1 M ethanolamine pH 8.5 for 7 min. For the reactivity assay, ATX-P-421, human CFHL1-Y402H-His, at 380 nM was tested with 5 min association followed by 15 min dissociation. Results were processed and analyzed in Carterra LSA Kinetics Software. The data was referenced with the interstitial reference spots and double-referenced to a buffer cycle, and then the responses (nm) after association were reported. Isotype control was used to determine the cutoff response for positive binding.
binder,measurement,value
B1,binding result,binds
